Measurements published in patent US9145381B2, “Derivative of [(3-hydroxy-4-pyron-2-yl)-methyl]-amine and use thereof as anti-neoplastic drugs” (Universita' Degli Studi Di Urbino, priority 2008, dated 2015).

System: plasmid DNA (pLL3.7)
Experiment: In vitro assay of structural alterations of plasmid DNA
Details: +37° C.
[1] = in the absence of copper sulphate
[2] = in the presence of copper sulphate (CuSO4), 10 mM Tris-HCl pH 7.4

CN1CCN(Cc2occc(=O)c2O)CCN(C)CCN(Cc2occc(=O)c2O)CC1 [Compound L9, 4(N),10(N)-bis[(3-hydroxy-4-pyron-2-yl)methyl]-1,7-dimethyl-1,4,7,10-tetraazacyclododecane]
alteration of plasmid DNA electrophoretic migration [1]: induce almost exclusively plasmid DNA species having a low electrophoretic mobility
alteration of plasmid DNA electrophoretic migration [2]: important alteration of the electrophoretic migration of the DNA which results mainly concentrated at the loading well

N,N′-bis[(3-hydroxy-4-pyron-2-yl)methyl]-N,N′-dimethylethylendiamine
alteration of plasmid DNA electrophoretic migration [1]: induce almost exclusively plasmid DNA species having a low electrophoretic mobility
alteration of plasmid DNA electrophoretic migration [2]: important alteration of the electrophoretic migration of the DNA which results mainly concentrated at the loading well
